# Reference: patent publication US20230255972A1, “PYRIMIDINE COMPOUND-CONTAINING COMBINATION TO BE USED IN TUMOR TREATMENT” (TAIHO PHARMACEUTICAL CO., LTD., priority 2020, published 2023)
# Tested on: Human stomach cancer-derived tumor cells 4-1ST
# Settings: for BWC (%, Mean ± SE) / T/C (%) / TV (mm^3, mean ± SE): Day 15; for BWC (%, Mean ± SE) / T/C (%) / TV (mm^3, mean ± SE) / Number of Deaths: Days 1, 8, iv
substance,measurement,setting,value
"trastuzumab: Trastuzumab (Herceptin, Roche), anti-Her2 antibody [reference compound]","BWC (%, Mean ± SE)",Trastuzumab 20 mg/kg/day,10.82 ± 0.90%
same,T/C (%),Trastuzumab 20 mg/kg/day,79.4%
same,"TV (mm^3, mean ± SE)",Trastuzumab 20 mg/kg/day,1621.4 ± 273.5 mm^3
same,"BWC (%, Mean ± SE)",Trastuzumab 40 mg/kg/day,9.22 ± 1.00%
same,T/C (%),Trastuzumab 40 mg/kg/day,74.4%
same,"TV (mm^3, mean ± SE)",Trastuzumab 40 mg/kg/day,1518.8 ± 204.2 mm^3
same,Number of Deaths,Trastuzumab 20 mg/kg/day,0
same,Number of Deaths,Trastuzumab 40 mg/kg/day,0
same,TV on Day 15 versus control group (Dunnett's test),"trastuzumab iv Days 1 and 8 (except for the 20 mg/kg/day group), Example 11 po Days 1-14",significantly lower TV

# Like-named read-outs stand apart in the source and are kept apart here.
